# Patent publication US20110262396A1, “COMBINATION TREATMENTS COMPRISING PROTEASE BINDING PROTEINS FOR INFLAMMATORY DISORDERS” (DYAX CORP., priority 2008, published 2011)
# System: collagen-induced arthritis (CIA)
# Assay: CIA mouse model, DX-2712 as monotherapy or combined with DMARDs or BRMs (Example 7)
# Type: in vivo, mouse (DBA/1)
# Details: end of study, 31 days of therapy; number in parentheses = dose in mg/kg (Table 12); DX-2712 20 mg/kg IP Q2D
# Method: To further evaluate if DX-2712 can lower the optimal therapeutic doses of DMARDs or BRMs, DX-2712 was tested in a CIA model as a monotherapy or in combination with other DMARDs (methotrexate) or BRMs (ENBREL® or ORENCIA®). In combination groups, DX-2712 was combined with the suboptimal dose of methotrexate, ENBREL® or ORENCIA®, which was determined based on literature reports (Neurath et al. 1999. Clin. Exp. Immunol. 115:42-55; Newton et al. 2001. Ann. Rheum. Dis. 60:iii25-iii32; Zalevsky et al. 2007. J. Immunol. 179:1872-1883).
# However, due to the lack of monotherapy with suboptimal dose of DMARD or BRM (1 mg/kg for methotrexate, 10 mg/kg for ENBREL®, and 1 mg/kg for ORENCIA®), a further in-depth study is carried out to determine the best suboptimal doses of the DMARD or BRMs to use in combination with DX-2712 and to confirm these preliminary findings.
substance,measurement,value
Abatacept [Orencia (2)],% change in AI Score,−46.67%
